Reference: article PMC3889502, “Inhibitory effects of monoterpenes on human TRPA1 and the structural basis of their activity” (The Journal of Physiological Sciences : JPS, 2013)
Entries after “also recorded” stand apart in the source; their conditions may differ.

Protein sequences, listed by entry. Tags and fused reporters are not part of them.
UniProt O75762, whole entry: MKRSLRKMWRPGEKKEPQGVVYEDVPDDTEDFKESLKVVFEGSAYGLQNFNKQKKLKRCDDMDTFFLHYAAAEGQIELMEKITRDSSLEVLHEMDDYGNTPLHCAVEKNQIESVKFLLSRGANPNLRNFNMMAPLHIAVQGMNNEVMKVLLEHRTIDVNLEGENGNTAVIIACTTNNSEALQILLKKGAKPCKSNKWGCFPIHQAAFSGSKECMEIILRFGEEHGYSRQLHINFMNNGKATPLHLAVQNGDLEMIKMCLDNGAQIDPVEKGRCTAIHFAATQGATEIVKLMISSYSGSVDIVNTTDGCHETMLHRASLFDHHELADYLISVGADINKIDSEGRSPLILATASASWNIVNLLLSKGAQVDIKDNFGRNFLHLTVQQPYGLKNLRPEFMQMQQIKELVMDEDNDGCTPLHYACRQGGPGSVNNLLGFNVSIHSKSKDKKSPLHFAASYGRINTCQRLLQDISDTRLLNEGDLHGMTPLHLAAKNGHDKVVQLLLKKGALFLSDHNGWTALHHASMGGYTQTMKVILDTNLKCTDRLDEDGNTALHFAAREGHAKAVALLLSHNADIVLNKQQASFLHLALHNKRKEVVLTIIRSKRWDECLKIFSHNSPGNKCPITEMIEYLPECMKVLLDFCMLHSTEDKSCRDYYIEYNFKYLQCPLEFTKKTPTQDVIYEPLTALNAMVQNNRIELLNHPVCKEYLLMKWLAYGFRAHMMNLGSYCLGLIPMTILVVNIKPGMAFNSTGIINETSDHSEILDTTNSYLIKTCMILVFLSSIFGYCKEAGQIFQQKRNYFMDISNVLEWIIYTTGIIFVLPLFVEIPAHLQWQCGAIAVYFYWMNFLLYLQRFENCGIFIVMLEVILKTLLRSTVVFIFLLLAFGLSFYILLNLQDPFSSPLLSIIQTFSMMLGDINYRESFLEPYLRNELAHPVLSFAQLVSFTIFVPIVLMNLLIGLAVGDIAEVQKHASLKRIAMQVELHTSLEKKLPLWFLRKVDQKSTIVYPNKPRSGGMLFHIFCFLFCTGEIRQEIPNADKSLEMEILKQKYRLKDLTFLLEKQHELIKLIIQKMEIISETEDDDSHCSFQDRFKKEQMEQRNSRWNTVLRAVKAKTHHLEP

Legend:
hTRPA1 [1] = target: T1, hTRPA1 (Homo sapiens, UniProt O75762); assay: Ca2+-imaging (fura-2): activation by test compounds, normalized to menthol; assay type: cell-based; settings: test compound 1 mM; HEK293T cells expressing hTRPA1
T1 construct: Full-length hTRPA1 was obtained from Life Technologies (Carlsbad, CA); host or cells: HEK293T
Procedure: (§1) For Ca^2+-imaging, 1 μg of plasmid DNA containing hTRPA1 in pcDNA3 in OPTI-MEM medium (Life Technologies) was transfected into HEK293T cells using Lipofectamine Plus Reagent (Life Technologies). Following incubation for 3–4 h, cells were reseeded on coverslips and incubated further at 37 °C in 5 % CO2.
(§2) Ca^2+-imaging was performed 1 day after transfection. […] Cytosolic-free Ca^2+ concentrations in HEK293T cells were measured by dual-wavelength fura-2 (Molecular Probes, Invitrogen Corp.) microfluorometry with excitation at 340/380 nm and emission at 510 nm. The fura-2 ratio image was calculated and acquired using the IP-Lab imaging processing system (Scanalytics Inc, Fairfax, VA). Ionomycin was used to confirm cell viability in the vector-transfected cells.
In these experiments, changes in the fura-2 ratio (corresponding to cytosolic Ca^2+ concentrations) induced by the test compounds and menthol were compared because menthol, which activates hTRPA1, and the test compounds are members of the monoterpene family.
Data are presented as the mean ± standard error of the mean (SEM) (n = 27–67)

hTRPA1 [2] = target: T1, hTRPA1; assay: Ca2+-imaging (fura-2): inhibition of menthol-induced cytosolic Ca2+ increase; assay type: cell-based; settings: menthol 1 mM; test compound 1 mM; HEK293T cells expressing hTRPA1
Procedure: as §1, §2
Data are presented as the mean ± SEM (n = 47–79)

[3] = tested on: vector-transfected HEK293T cells; assay: Ca2+-imaging in vector-transfected cells (control); assay type: cell-based, human; settings: with or without menthol; cells responded normally to ionomycin 5 μM
Procedure: Ca^2+-imaging was performed 1 day after transfection. HEK293T cells on coverslips were mounted in an open chamber and superfused with a standard bath solution (140 mM NaCl, 5 mM KCl, 2 mM MgCl2, 2 mM CaCl2, 10 mM HEPES, and 10 mM glucose, pH 7.4). Cytosolic-free Ca^2+ concentrations in HEK293T cells were measured by dual-wavelength fura-2 (Molecular Probes, Invitrogen Corp.) microfluorometry with excitation at 340/380 nm and emission at 510 nm. The fura-2 ratio image was calculated and acquired using the IP-Lab imaging processing system (Scanalytics Inc, Fairfax, VA). Ionomycin was used to confirm cell viability in the vector-transfected cells.
Washing-out of the three compounds after menthol exposure led to small increases in the fura-2 ratio, which could be due to the loss of inhibition and resumption of hTRPA1 activity from residual menthol in the cell.
Supplementary file 12576_2013_289_MOESM1_ESM.jpg: Supplementary material 1 (JPEG 324 kb) Supplementary Figure 1. Effects of borneol, 2-methylisoborneol, fenchyl alcohol and norcamphor with or without menthol on cytosolic Ca ^2+ concentrations in vector-transfected HEK293T cells. […] (n = 48-75)

hTRPA1 [4] = target: T1, hTRPA1; assay: Whole-cell patch-clamp: inhibition of agonist-induced hTRPA1 current; assay type: cell-based; settings: AITC 20 μM, no extracellular Ca2+, mean ± SEM, n = 5-10, Hill fit
Procedure: Human embryonic kidney (HEK) 293T cells were maintained in DMEM (WAKO Pure Chemical Industries Ltd.) supplemented with 10 % fetal bovine serum (Biowest SAS, Caille, France), 100 U/mL penicillin (Life Technologies), 100 μg/mL streptomycin (Life Technologies), and 2 mM L-glutamine (GlutaMAX; Life Technologies) at 37 °C in 5 % CO2. For Ca^2+-imaging, 1 μg of plasmid DNA containing hTRPA1 in pcDNA3 in OPTI-MEM medium (Life Technologies) was transfected into HEK293T cells using Lipofectamine Plus Reagent (Life Technologies). Following incubation for 3–4 h, cells were reseeded on coverslips and incubated further at 37 °C in 5 % CO2.
Whole-cell patch-clamp recordings were performed 1 day after transfection. The standard bath solution was the same as that used in the Ca^2+-imaging experiments, and extracellular Ca^2+ was removed and 5 mM EGTA added for the recording of AITC-, menthol- and FFA-induced current responses. The pipette solution contained 140 mM KCl, 5 mM EGTA, and 10 mM HEPES, pH 7.4 (adjusted with KOH). Data from the whole-cell voltage-clamp recordings were sampled at 10 kHz and filtered at 5 kHz for analysis (Axon 200B amplifier with pCLAMP software; Axon Instruments, Sunnyvale, CA). The membrane potential was clamped at −60 mV for all conditions. […]
The current response was measured in the absence of extracellular Ca^2+ to minimize desensitization. […]

SMILES | Change in fura-2 ratio (340/380 nm) by test compound, normalized to the change by 1 mM menthol (hTRPA1 [1]) | Inhibition of the menthol-induced increase in fura-2 ratio (hTRPA1 [2]) | Effect on fura-2 ratio in vector-transfected cells [3] | IC50 (hTRPA1 [4]) [µM]
CC12CCC(C1)C(C)(C)C2O (stereo not shown) [Fenchyl alcohol] | small changes in the fura-2 ratio | almost completely blocked | did not provide any effect; also recorded: No changes in the fura-2 ratio | 320 ± 60
CC12CCC(CC1=O)C2(C)C (stereo not shown) [Camphor, reference compound] | small changes in the fura-2 ratio; also recorded: failed to observe changes | almost completely blocked; also recorded: blockage | – | 1260 ± 320
